Tests used:
[1] = Cell toxicity / % cell viability by flow cytometry (cells in total events v. untreated); type: cell-based; details: human, HeLa cells, Cell viability (%) (±St. Dev.; n = 3), FIG. 29D
[2] = test system: HeLa cells; assay: GFP-NLS transduction efficiency, flow cytometry (Pos cells %, relative fluorescence intensity FL1-A); type: cell-based, Human; details: Protocol B, peptide 50 μM, GFP-NLS 5 μM, 10 seconds

## CC[C@H](C)[C@H](NC(=O)[C@H](CCCCN)NC(=O)[C@@H](NC(=O)[C@H](CCC(N)=O)NC(=O)[C@@H](N)CCCNC(=N)N)[C@@H](C)CC)C(=O)N[C@@H](Cc1c[nH]c2ccccc12)C(=O)N[C@@H](Cc1ccccc1)C(=O)N[C@@H](CCC(N)=O)C(=O)N[C@@H](CC(N)=O)C(=O)N[C@@H](CCCNC(=N)N)C(=O)N[C@@H](CCCNC(=N)N)C(=O)N[C@@H](CCSC)C(=O)N[C@@H](CCCCN)C(=O)N[C@@H](Cc1c[nH]c2ccccc12)C(=O)N[C@@H](CCCCN)C(=O)N[C@@H](CCCCN)C(=O)N[C@@H](CS)C(=O)O [Penetratin (Pen)]
[1]
  viability at 10 s, 50 µM: 96 ± 0.6%
[2]
  Mean % cells with GFP signal (±St. Dev.; n = 3), FIG. 29D: 3.6 ± 0.1%

— patent publication US12060387B2, “Polypeptide-based shuttle agents for improving the transduction efficiency of polypeptide cargos to the cytosol of target eukaryotic cells, uses thereof, methods and kits relating to same” (priority 2015, dated 2024)
